Experiment: Dissolution rate test of Apixaban/carboxylic acid co-crystal (paddle method, Chinese Pharmacopoeia guidelines; equilibrium solubility in dissolution medium)
Assay type: physicochemical
Conditions: relative to Apixaban; dissolution medium 0.1mol/L hydrochloric acid, 37±0.5°C, paddle method 100rpm, 900ml, 500 mg sample powder
Method: Test Example 1: Dissolution rate test of Apixaban/carboxylic acid co-crystal
According to the dissolution rate test guidelines in the current Chinese Pharmacopoeia, a dissolution rate experiment was designed to respectively investigate the dissolution rates of the five Apixaban/carboxylic acid co-crystals prepared by the present invention. The specific scheme is as follows:
Table 6 Dissolution equipment and parameters
0.1mol/L hydrochloric acid solution: 9ml of hydrochloric acid was added into 1000ml of water and stirred well.
After the dissolution conditions were reached, 500 mg of sample powder were weighed and put into a dissolution cup, rotated, and immediately counted the time, after 1, 2, 3, 4, 6, 8, 10, 12, 14, 16, 18, 20, 22 and 24 hours, sampled with a sampling needle equipped with a 10µm polymeric polyethylene filter membrane, and filtered on-line through a 0.45µm polyvinylidene fluoride (PVDF) filter membrane.

dissolution rate (times that of Apixaban) | Substance
1.45 times | Apixaban/L-tartaric acid co-crystal [crystal form V]
1.53 times | Apixaban/maleic acid co-crystal [crystal form III]

Source: EP3932918A1, “EUTECTIC CRYSTAL FORMED BY APIXABAN AND CARBOXYLIC ACID, AND PREPARATION METHOD THEREFOR” (Zhejiang Tianyu Pharmaceutical Co., Ltd., priority 2019, dated 2021)
